Read-outs that look alike come from different tables or passages of the source.
Tests used:
PI3K-α = PI3K-α (Homo sapiens, UniProt P42336); experiment: PI3K-alpha fluorescence polarization assay; conditions: read-out: IC50 PI3Kα
PI3K-γ = PI3K-γ (Homo sapiens, UniProt P48736); experiment: PI3K-gamma fluorescence polarization assay; conditions: read-out: IC50 PI3Kγ

By UniProt entry, the sequences of proteins in these tests, tags left out.
UniProt P42336, whole entry, species assumed: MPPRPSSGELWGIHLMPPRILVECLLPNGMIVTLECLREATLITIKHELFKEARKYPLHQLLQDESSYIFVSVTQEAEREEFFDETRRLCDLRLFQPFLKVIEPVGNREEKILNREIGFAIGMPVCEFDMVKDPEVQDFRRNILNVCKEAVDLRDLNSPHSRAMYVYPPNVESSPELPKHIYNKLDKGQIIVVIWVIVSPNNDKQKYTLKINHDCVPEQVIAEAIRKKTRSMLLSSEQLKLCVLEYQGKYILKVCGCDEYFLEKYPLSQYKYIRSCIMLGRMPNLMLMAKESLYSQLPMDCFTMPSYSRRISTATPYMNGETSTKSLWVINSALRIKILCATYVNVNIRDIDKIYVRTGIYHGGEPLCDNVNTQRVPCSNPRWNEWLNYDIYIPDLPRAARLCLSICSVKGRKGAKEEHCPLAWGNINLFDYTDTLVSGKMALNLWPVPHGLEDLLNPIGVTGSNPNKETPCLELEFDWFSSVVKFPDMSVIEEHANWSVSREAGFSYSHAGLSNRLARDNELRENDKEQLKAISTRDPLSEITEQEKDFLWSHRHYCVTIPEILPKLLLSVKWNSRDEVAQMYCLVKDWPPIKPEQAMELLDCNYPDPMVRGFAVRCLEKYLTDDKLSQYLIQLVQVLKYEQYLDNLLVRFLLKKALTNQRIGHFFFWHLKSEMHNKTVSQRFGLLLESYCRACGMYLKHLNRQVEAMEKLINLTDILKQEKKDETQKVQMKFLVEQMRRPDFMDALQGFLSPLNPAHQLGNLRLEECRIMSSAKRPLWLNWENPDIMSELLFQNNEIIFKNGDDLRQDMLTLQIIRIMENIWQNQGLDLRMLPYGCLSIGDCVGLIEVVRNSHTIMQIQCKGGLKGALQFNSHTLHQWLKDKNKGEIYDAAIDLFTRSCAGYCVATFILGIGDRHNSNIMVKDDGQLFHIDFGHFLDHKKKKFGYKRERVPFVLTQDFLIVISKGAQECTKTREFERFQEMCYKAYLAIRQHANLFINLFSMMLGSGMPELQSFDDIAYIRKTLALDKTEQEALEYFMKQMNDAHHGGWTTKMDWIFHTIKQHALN
UniProt P48736, whole entry, species assumed: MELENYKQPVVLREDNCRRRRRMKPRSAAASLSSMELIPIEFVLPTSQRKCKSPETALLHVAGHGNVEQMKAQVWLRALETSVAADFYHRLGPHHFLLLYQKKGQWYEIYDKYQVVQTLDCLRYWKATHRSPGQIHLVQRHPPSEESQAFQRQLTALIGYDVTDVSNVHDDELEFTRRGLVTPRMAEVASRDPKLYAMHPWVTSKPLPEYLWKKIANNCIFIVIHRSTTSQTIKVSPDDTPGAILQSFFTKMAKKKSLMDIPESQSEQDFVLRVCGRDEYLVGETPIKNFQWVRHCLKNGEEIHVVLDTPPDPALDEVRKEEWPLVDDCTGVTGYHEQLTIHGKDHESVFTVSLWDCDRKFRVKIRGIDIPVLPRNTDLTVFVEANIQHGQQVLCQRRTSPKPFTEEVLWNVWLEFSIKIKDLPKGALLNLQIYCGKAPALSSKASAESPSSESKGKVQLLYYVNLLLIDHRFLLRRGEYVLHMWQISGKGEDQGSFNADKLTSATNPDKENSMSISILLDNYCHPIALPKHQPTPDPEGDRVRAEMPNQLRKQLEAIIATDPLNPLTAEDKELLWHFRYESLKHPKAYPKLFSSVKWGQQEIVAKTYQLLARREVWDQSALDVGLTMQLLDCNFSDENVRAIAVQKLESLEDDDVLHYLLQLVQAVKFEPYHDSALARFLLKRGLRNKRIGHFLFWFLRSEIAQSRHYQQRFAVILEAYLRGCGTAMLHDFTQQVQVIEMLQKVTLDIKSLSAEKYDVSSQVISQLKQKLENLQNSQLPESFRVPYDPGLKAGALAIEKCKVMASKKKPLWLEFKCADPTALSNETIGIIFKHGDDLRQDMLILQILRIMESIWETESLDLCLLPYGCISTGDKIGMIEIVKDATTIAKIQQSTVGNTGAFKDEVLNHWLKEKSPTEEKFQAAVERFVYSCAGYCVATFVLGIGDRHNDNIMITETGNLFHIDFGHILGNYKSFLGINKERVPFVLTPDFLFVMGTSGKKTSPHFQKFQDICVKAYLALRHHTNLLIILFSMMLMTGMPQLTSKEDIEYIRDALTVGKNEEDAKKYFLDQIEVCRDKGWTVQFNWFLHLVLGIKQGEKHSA

O=C(Nc1ccc(-c2nc(N3CCOCC3)nc(N3CCOCC3)n2)cc1)Nc1cccnc1 [Example 2, 1-[4-(4,6-dimorpholin-4-yl-1,3,5-triazin-2-yl)phenyl]-3-pyridin-3-ylurea]
IC50 (PI3K-α): 2 nM
IC50 (PI3K-γ): 35 nM

CNC(=O)c1ccc(NC(=O)Nc2ccc(-c3nc(N4CCOCC4)nc(N4CCOCC4)n3)cc2)cc1 [Example 70, 4-(3-(4-(4,6-dimorpholino-1,3,5-triazin-2-yl)phenyl)ureido)-N-methylbenzamide]
IC50 (PI3K-γ): 20 nM

O=C(Nc1ccc(Cl)cc1)Nc1ccc(-c2nc(N3CCOCC3)nc(N3CCOCC3)n2)cc1 [Example 8, 1-(4-chlorophenyl)-3-[4-(4,6-dimorpholin-4-yl-1,3,5-triazin-2-yl)phenyl]-urea]
IC50 (PI3K-γ): 220 nM
IC50 (PI3K-γ; listed as 10): 289 nM

CC(O)c1ccc(NC(=O)Nc2ccc(-c3nc(N4CCOCC4)nc(N4CCOCC4)n3)cc2)cc1 (centres unmarked) [Example 52, 1-[4-(4,6-dimorpholin-4-yl-1,3,5-triazin-2-yl)phenyl]-3-[4-(1-hydroxyethyl)phenyl]urea]
IC50 (PI3K-α): 2 nM
IC50 (PI3K-γ): 38 nM

COc1nc(-c2ccc(NC(=O)Nc3ccc(C(=O)N4CCN(C)CC4)cc3)cc2)nc(N2CCOCC2)n1 [Example 246, 1-[4-(4-methoxy-6-morpholin-4-yl-1,3,5-triazin-2-yl)phenyl]-3-{4-[(4-methylpiperazin-1-yl)carbonyl]phenyl}urea]
IC50 (PI3K-α): 1 nM
IC50 (PI3K-α; listed as 723): 1.3 nM

CC(C)Oc1nc(-c2ccc(NC(=O)Nc3ccc(C(=O)NC4CCN(C)CC4)cc3)cc2)nc(N2CCOCC2)n1 [Example 97, 4-({[4-(4-isopropoxy-6-morpholin-4-yl-1,3,5-triazin-2-yl)phenyl]carbamoyl}amino)-N-(1-methylpiperidin-4-yl)benzamide]
IC50 (PI3K-α): 2 nM
IC50 (PI3K-γ): 22 nM

Source: patent publication US20090304692A1, “TRIAZINE COMPOUNDS AS PI3 KINASE AND MTOR INHIBITORS” (Wyeth, priority 2008, published 2009)
